Legend:
[1] = target: Metabotropic glutamate receptor 5 (Rattus norvegicus, UniProt P31424); test: Displacement of [3H]MPEP from mGluR5 receptor in Sprague-Dawley rat forebrain membrane after 60 mins by liquid scintillation spectrometry
In short: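 Rat forebrain (cortex, striatum, hippocampus) homogenized in 50 mM Tris pH 7.4, washed by centrifugation with 37 °C incubations, then frozen. Membranes resuspended in 20 mM HEPES, 2 mM MgCl2, 2 mM CaCl2, pH 7.4 and incubated 60 min at 25 °C with 4 nM [3H]MPEP. Nonspecific binding with 10 µM MPEP. Filtration, scintillation counting. Ki by Cheng-Prusoff.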

Sequences of proteins named here, by UniProt entry; tags and fusion partners are left off.
UniProt P31424, whole entry: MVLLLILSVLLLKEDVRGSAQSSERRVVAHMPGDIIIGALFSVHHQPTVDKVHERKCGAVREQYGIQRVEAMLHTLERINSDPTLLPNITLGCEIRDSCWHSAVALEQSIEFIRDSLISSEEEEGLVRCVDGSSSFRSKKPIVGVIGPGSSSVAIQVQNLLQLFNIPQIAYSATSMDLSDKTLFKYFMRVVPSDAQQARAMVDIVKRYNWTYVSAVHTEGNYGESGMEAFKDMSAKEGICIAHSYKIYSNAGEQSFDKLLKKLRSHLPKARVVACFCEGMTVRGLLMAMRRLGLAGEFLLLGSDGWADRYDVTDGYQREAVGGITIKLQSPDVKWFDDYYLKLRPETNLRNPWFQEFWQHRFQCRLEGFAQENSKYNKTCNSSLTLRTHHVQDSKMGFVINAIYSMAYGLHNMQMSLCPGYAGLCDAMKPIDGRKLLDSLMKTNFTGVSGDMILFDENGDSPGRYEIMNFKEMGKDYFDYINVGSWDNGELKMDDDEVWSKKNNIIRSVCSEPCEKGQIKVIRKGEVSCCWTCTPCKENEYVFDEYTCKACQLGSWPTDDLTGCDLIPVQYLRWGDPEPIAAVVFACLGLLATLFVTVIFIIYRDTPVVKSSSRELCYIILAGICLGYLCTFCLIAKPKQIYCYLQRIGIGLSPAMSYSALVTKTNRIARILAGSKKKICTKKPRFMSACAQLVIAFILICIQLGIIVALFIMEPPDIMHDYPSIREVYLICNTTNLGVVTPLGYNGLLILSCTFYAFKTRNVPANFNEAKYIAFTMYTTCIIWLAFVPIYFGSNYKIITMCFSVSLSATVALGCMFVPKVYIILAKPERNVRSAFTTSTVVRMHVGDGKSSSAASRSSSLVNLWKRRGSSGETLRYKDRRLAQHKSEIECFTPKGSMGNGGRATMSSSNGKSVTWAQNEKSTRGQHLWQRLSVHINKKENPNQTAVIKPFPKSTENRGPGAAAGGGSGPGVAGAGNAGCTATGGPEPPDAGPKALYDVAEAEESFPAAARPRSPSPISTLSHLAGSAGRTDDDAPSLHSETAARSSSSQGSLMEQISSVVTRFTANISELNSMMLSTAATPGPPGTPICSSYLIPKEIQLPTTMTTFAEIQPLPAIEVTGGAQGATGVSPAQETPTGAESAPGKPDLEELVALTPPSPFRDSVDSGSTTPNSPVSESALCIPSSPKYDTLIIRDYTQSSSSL
UniProt P41594, whole entry: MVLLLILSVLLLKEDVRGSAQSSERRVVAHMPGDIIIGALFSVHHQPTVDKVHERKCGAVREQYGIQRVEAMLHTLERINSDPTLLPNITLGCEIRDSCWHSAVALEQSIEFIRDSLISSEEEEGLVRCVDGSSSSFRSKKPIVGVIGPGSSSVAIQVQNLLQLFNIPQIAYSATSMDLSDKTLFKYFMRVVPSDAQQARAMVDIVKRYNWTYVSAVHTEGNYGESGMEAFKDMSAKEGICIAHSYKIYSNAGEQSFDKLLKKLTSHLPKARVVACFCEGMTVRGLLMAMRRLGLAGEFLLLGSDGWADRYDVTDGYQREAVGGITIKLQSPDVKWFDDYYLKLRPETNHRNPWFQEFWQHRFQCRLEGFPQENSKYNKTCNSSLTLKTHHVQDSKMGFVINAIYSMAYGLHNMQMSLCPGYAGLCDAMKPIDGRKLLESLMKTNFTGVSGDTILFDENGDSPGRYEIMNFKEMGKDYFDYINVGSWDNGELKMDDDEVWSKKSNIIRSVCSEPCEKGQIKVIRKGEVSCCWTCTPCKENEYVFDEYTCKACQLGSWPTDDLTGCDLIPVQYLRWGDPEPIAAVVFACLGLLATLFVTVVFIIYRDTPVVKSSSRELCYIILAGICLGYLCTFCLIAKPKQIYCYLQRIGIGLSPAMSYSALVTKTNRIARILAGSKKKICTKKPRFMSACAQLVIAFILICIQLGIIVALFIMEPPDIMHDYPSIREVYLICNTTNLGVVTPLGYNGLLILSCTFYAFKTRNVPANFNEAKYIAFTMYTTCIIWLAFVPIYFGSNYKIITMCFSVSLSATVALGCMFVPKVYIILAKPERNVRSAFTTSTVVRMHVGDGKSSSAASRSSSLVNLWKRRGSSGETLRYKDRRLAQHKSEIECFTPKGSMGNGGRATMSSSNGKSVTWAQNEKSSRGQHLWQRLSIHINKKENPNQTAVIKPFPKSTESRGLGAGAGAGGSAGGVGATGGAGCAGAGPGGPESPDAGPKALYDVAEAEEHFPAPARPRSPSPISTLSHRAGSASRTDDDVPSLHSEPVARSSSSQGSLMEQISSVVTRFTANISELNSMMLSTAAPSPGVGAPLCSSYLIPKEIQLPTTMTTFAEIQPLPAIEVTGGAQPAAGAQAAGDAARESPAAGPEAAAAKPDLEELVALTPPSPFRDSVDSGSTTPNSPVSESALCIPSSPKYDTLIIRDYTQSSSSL

[2] = target: T1, Metabotropic glutamate receptor 5 (Homo sapiens, UniProt P41594); test: Displacement of [3H]MPEP from human cloned mGluR5 receptor expressed in CHO-T-Rex cells after 60 mins by liquid scintillation spectrometry; format: cell-based
In short: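 Membranes of CHO T-REx cells stably expressing human mGlu5, with expression derepressed by 1 µg/mL tetracycline for 18 h. Cells at 50 µg/well in 20 mM HEPES, 2 mM MgCl2, 2 mM CaCl2, pH 7.4, incubated 60 min at 25 °C with 4 nM [3H]MPEP. Nonspecific binding defined with 10 µM MPEP. Filtration, then scintillation counting. Ki from IC50 by Cheng-Prusoff. Three experiments, duplicate points.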

[3] = target: T1, Metabotropic glutamate receptor 5; test: Negative allosteric modulatory activity at human cloned mGluR5 receptor expressed in CHO-T-Rex cells assessed as inhibiton of quisqualate-induced calcium mobilization treated 10 mins prior to agonist application by fluorescence analysis; format: functional, cell-based
In short: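 CHO T-REx cells expressing human mGlu5, induced 18 h with 3 ng/mL tetracycline and seeded at 80,000 cells/well. Loaded 1 h at 37 °C with 2 µM Fluo-4/AM in HBSS with 20 mM HEPES and 2.5 mM probenecid, then washed. Compound (0.5% DMSO final) added 10 min before quisqualate at its daily EC80. Peak minus basal fluorescence read every 1.5 s for 60 s.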

| SMILES | Ki [1] | Ki [2] | IC50 [3] |
| --- | --- | --- | --- |
| Cc1nc(C#Cc2cccnc2)cs1 | 38.5 nM | 32.7 nM | 47.3 nM |
| Cc1nc(C#Cc2ccc(-c3cccnc3)nc2)cs1 | 11.2 nM | 4.7 nM | 6.1 nM |
| Cc1cccc(C#Cc2ccccc2)n1 | 15.3 nM |  |  |
